Protein sequences, listed by entry. Tags and fused reporters are not part of them.
UniProt Q86W56, whole entry: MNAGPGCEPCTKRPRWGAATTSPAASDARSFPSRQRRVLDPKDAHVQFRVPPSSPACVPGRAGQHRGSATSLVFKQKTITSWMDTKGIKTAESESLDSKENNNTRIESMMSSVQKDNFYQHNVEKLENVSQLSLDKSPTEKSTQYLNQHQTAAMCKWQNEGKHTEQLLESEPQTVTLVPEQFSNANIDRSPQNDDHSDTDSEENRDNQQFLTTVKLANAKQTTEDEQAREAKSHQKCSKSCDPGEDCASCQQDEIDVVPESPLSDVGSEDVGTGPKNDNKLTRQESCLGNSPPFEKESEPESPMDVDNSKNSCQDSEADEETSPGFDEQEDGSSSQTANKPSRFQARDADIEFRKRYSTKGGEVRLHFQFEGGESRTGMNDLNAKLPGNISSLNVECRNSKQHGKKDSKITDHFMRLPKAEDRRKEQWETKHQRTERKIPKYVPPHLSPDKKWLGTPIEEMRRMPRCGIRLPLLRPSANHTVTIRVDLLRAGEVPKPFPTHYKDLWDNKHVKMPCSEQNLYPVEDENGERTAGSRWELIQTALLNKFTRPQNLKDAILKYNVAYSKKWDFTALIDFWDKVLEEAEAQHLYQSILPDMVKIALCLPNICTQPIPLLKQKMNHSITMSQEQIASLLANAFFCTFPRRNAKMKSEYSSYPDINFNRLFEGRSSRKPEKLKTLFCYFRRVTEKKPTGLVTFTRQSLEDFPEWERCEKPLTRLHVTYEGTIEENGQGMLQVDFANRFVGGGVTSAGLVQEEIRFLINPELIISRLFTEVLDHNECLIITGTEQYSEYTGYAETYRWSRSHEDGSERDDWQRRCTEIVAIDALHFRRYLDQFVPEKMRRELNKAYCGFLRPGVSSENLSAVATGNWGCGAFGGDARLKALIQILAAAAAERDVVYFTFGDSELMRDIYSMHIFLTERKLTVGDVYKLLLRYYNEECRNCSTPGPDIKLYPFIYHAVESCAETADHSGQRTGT

In patent EP4800013A1, “PARG INHIBITOR” (Shanghai Qilu Pharmaceutical Research and Development …, priority 2023, dated 2025):

What was measured:
[1] = system: KURAMOCHI cells; assay: Inhibition of proliferation of KURAMOCHI cells (CellTiter-Glo, intracellular ATP); details: read-out: IC50 against KURAMOCHI cells, incubated for 7 days, tested form: formate
[2] = molecular target: PARG (Homo sapiens, UniProt Q86W56); assay: Enzymatic inhibitory activity against PARG, HTRF assay; format: biochemical; details: read-out: IC50 against PARG enzyme, PARylated PARP1 protein as substrate, 60 minutes at room temperature, tested form: formate

C[C@H]1CN(c2cc(S(=O)(=O)NC3(C)CC3)cc3c2nc([C@@H]2CC(F)(F)CO2)n3-c2nnc(C(F)F)s2)C[C@H](C)N1
IC50 [1]: 2 nM
IC50 [2]: 0.6 nM
